The values below come from BindingDB's records for PubMed 9223589 (University of Tours, 1997).

By UniProt entry, the sequences of proteins in these tests, tags left out.
UniProt P31652, whole entry: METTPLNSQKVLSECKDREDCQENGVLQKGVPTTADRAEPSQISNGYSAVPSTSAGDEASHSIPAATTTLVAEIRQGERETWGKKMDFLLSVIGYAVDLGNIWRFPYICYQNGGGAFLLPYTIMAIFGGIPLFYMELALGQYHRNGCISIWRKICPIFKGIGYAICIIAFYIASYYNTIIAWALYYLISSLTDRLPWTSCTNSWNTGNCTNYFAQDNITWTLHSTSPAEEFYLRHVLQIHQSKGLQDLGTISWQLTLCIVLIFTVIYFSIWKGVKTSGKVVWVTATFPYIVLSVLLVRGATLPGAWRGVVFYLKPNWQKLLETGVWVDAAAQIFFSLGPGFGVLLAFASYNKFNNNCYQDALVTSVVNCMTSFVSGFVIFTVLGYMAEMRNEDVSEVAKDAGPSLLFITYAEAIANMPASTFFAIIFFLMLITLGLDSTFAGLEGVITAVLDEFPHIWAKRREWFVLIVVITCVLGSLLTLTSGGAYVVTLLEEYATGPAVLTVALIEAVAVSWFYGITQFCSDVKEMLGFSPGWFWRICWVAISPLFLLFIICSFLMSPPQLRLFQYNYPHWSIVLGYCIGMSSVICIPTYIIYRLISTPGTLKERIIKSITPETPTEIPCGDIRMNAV

pKi: −log10 of the molar value.

In the assay the target is Sodium-dependent serotonin transporter (Rattus norvegicus, UniProt P31652).

By pKi is commonly meant the Ki on a negative log10 scale, so that one unit is a factor of ten. High values mean a low Ki, low ones a high Ki. In turn, `Fc1ccc([C@@H]2CCNC[C@H]2COc2ccc3c(c2)OCO3)cc1` [PAROXETINE] gave a pKi of 9.10.
